# Test results: patent US12161722B2, “Bifunctional heterocyclic compound having BTK degradation function via ubiquitin proteasome pathway, and use thereof” (KOREA RESEARCH INSTITUTE OF CHEMICAL TECHNOLOGY, priority 2021, dated 2024)
# By UniProt entry, the sequences of proteins in these tests, tags left out. Where a name states a change or a piece, a line headed by the entry shows the natural chain unless it says otherwise.
# UniProt Q06187, whole entry: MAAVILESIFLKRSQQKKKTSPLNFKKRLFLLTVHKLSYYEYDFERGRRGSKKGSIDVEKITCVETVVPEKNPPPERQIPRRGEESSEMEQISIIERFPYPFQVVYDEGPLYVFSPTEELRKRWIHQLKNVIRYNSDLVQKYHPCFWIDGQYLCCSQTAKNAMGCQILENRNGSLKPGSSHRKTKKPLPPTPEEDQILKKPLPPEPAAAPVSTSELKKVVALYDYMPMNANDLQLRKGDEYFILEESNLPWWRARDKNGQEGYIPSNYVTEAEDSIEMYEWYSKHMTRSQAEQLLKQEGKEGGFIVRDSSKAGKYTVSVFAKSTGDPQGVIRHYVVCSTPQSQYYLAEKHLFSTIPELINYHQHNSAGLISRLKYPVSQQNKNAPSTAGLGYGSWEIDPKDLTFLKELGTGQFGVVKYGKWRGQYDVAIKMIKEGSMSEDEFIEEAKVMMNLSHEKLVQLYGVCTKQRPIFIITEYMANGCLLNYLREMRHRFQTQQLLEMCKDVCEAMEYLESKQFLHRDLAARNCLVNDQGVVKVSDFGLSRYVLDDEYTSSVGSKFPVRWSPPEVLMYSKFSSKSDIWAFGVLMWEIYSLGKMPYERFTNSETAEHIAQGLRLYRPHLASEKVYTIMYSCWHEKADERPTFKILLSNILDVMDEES
# UniProt Q06187, whole entry C481S: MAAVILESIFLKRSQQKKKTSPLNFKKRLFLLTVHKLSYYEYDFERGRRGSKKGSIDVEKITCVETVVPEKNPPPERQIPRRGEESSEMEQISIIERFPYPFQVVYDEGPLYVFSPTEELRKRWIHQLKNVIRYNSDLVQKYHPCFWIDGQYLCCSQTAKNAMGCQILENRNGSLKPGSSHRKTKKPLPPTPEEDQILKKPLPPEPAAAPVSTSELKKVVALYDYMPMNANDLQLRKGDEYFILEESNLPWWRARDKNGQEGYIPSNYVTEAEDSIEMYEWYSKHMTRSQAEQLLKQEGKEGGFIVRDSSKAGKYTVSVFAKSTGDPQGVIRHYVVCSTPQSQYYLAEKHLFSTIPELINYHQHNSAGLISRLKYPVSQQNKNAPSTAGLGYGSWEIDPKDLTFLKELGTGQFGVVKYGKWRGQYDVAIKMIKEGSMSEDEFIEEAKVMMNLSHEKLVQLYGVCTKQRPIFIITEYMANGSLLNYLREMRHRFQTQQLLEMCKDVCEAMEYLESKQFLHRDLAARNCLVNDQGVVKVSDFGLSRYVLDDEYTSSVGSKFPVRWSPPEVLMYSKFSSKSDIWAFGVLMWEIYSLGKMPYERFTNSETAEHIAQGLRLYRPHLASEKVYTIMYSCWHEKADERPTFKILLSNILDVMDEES
# Assays:
# WT BTK protein = WT BTK protein (Homo sapiens, UniProt Q06187); assay: BTK protein degradation assay (Western blotting), WT BTK; conditions: read-out: WT BTK Degradation (DC50 %), concentration range accounting for 50% degradation of WT BTK protein, TMD-8 or RAMOS cells, 24 hours
# Method: (§1) TMD-8, RAMOS, or 293T BTK MUT (C481S) cells were treated with the synthesized compounds and measured for intracellular BTK protein levels by Western blotting. The protocol of the experiment using TMD-8 cells is as follows.
# TMD-8 cells were resuspended in an RPMI1640 medium (Hyclone, SH30027.01, 10% FBS (Hyclone, SV30207.02), 1% penicillin-streptomycin (Welgene, LS 202-02) and the cell suspension was seeded at a density of 1×10^6 cells/mL in an amount of 1 mL per well into 12-well plates.
# (§2) The 12-well plates were treated as follows. A 10 mM stock was 1/10 diluted in series with DMSO ([…]) to form final concentrations of 10, 1, 0.1, 0.01, 0.001, and 0.0001 mM. The compounds with such concentrations were applied to cells, followed by harvesting the cells 24 hours later. For a negative control, a 1/10 dilution of DMSO in the medium (3 mL DMSO+27 mL medium) was used.
# The 1-mL cell culture in each well was passed many times through a pipette and then transferred into a 1.5-mL microtube before centrifugation (500 g, 5 min, 4° C.). The supernatant was discarded and the cell pellet was washed with PBS. After centrifugation (500 g, 5 min, 4° C.) again, the supernatant was discarded and the cell pellet was taken.
# A lysis buffer was prepared as follows. RIPA buffer (Biosesang, RC2038-050-00)+0.5 mM PMSF (SIGMA, P7626)+1×Protease/Phosphatase Inhibitor (Cell signaling, 5872S) was added in an amount […] per well and left for 30 minutes on ice (vortexing at 0 and 30 minutes) before sonication (5 cycles of pulse for 10 seconds and rest for 30 seconds, 70% amplification). The supernatant obtained by centrifugation (15000 g, 15 min, 4° C.) was transferred into a new microtube. […] After being cooled for 10 minutes, the 96-well plates were measured for absorbance at 562 nm on the BioTek, SYNERGY H1 microplate reader. Samples were prepared by protein quantification based on the absorbance measurements and then boiled at 70° C. for 10 minutes. […]
# C481S BTK protein = C481S BTK protein (Homo sapiens, UniProt Q06187, C481S); assay: BTK protein degradation assay (Western blotting), C481S BTK; conditions: read-out: C481S BTK Degradation (DC50 %), concentration range accounting for 50% degradation of C481S BTK protein, 293T BTK MUT (C481S) cells
# Method: as §1, §2
# The 1-mL cell culture in each well was passed many times through a pipette and then transferred into a 1.5-mL microtube before centrifugation (500 g, 5 min, 4° C.). The supernatant was discarded and the cell pellet was washed with PBS. […]
# A lysis buffer was prepared as follows. […] After being cooled for 10 minutes, the 96-well plates were measured for absorbance at 562 nm on the BioTek, SYNERGY H1 microplate reader. Samples were prepared by protein quantification based on the absorbance measurements and then boiled at 70° C. for 10 minutes. […]
# According to the concentration ranges of compounds accounting for 50% degradation of WT BTK protein and C481S BTK protein, the activities are expressed as +++(0.0001-0.01 μM), ++(0.01-1 μM), +(1-10 μM), −(>10 μM), and NT (not tested). […]
SMILES,DC50 (WT BTK protein),DC50 (C481S BTK protein)
Nc1ncnc2c1c(-c1ccc(Oc3ccccc3)cc1)nn2C1CCN(CCOCCOCC(=O)Nc2ccc3c(c2)C(=O)N(C2CCC(=O)NC2=O)C3=O)CC1 (stereo not shown),10 to 1000 nM,1000 to 10000 nM
Cc1cccc(C)c1Nc1nn(C)c2nc(Nc3ccc(C4CCN(C(=O)c5ccc6c(c5)CN(C5CCC(=O)NC5=O)C6=O)CC4)cc3)ncc12 (stereo not shown),0.1 to 10 nM,
Cc1cccc(C)c1Nc1nn(C)c2nc(Nc3ccc4c(c3)CN(C(=O)C3(F)CCN(C(=O)c5ccc6c(c5)CN(C5CCC(=O)NC5=O)C6=O)CC3)CC4)ncc12 (stereo not shown),0.1 to 10 nM,
